Source: paper PMC3728706

B1: Dvl1 PDZ domain (domain or fragment)
chain: TVTLNMERHHFLGISIVGQSNDRGDGGIYIGSIMKGGAVAADGRIEPGDMLLQVNDVNFENMSNDDAVRVLRE
B2: Dvl3 PDZ domain (domain or fragment)
chain: TVTLNMEKYNFLGISIVGQSNERGDGGIYIGSIMKGGAVAADGRIEPGDMLLQVNEINFENMSNDDAVRVLRE

The molecules below were run against fluorescently labeled peptide derived from the C-terminus of β-catenin (assay: fluorescence polarisation).
A Kd of 176 µM was found for “Neurabin-1 PDZ domain (domain or fragment)” in this work. A Kd of 79 µM was found for B1 in this work. A Kd of 155 µM was found for B2 in this work.
